Measured values published in article PMC12621569 (Antiviral research, 2025).

Biological target: A (H1N1)pdm09 neuraminidase (NA) (Influenza A virus, UniProt C3W5S3)
Format: biochemical
Conditions: read-out: IC50 Mean ± SD

With `CC(=O)N[C@H]1[C@H]([C@H](O)[C@H](O)CO)OC(C(=O)O)=C[C@@H]1N=C(N)N` [Zanamivir, zanamivir] the IC50 was 0.18 ± 0.06 nM.
